This assay has as its target human β2-AR (Homo sapiens, UniProt P07550). The experiment in a line: Calcium response (Fluo-4) in Flp-In-293 cells stably transfected with ADRB2 and GNA15. It counts as cell-based. The conditions noted are these: for IC50: read-out: IC50 (microM); for IC50 / % INHIBITION / % INHIBTION: epinephrine 5 nM; for % INHIBTION: inhibitor 33.33 microM, 45 min pre-incubation; for Ki: read-out: Ki (microM).

Sequences of proteins named here, by UniProt entry; tags and fusion partners are left off.
UniProt P07550, whole entry: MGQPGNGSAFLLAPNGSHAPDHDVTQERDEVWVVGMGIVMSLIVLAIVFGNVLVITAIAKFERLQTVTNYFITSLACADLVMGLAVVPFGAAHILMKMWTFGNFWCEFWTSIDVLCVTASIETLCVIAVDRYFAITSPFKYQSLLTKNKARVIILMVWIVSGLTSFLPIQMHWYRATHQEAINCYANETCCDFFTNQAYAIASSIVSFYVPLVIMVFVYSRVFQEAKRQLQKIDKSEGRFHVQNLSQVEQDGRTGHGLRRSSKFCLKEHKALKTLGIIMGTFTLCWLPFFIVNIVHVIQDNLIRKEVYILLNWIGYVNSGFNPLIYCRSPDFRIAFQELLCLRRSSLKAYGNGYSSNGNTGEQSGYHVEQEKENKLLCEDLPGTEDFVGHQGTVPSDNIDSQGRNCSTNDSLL

[1] abbreviates: second CD3 compounds overview table.
The mark [2] stands for this setting: calculated from IC50, [A] and EC50 (0.001 nM).

The structures appear in SMILES notation. Read-outs that look alike come from different tables or passages of the source.

One may read the IC50 as the concentration that inhibits the measured activity by half. For `OC(CNCc1ccccc1)COc1ccc(OCC(O)CNCc2ccccc2)cc1` (stereo not shown), under setting [1], the IC50 is 44 µM and the “% INHIBITION” value came out at 72%.
The term Ki denotes a measure of affinity in units of concentration, obtained from inhibition or displacement. For the compound `Cc1ccccc1OCC(O)CNCc1cccc(CNCC(O)COc2ccccc2C)c1` (stereo not shown), the “% INHIBTION” value was found to be 100% and the IC50 stood at 0.71 µM. In addition, the Ki under setting [2] is 0.142 nM.
On to `CC(C)(C)NCC(O)COc1cccc2[nH]cc(CC(=O)NN)c12` (racemic) [CD3 X], for which, under setting [1], the IC50 is 0.07 µM, the Ki was 0.014 nM and the “% INHIBITION” value is reported as 95%.
For `Cc1cc(OCC(O)CNCCc2ccc(Cl)cc2Cl)c(C(C)C)cc1Cl` (stereo not shown), the “% INHIBTION” value is 96% and the IC50 was 0.5 µM.
In the case of `CC(C)(CNCC(O)COc1ccccc1)CNCC(O)COc1ccccc1` (stereo not shown), the “% INHIBTION” value is on record as 96% and the IC50 worked out at 2.3 µM. In addition, under setting [2], the Ki was 0.46 nM.
Consider `OC(CNCCc1ccccc1)COc1ccc(OCC(O)CNCCc2ccccc2)cc1` (stereo not shown), for which the “% INHIBTION” value is on record as 67% and the IC50 was found to be 18.5 µM. In addition, the Ki under setting [2] was 3.72 nM.
The matching figures for `CC(NCC(O)COc1ccc(C#N)cc1)c1ccc(S(N)(=O)=O)cc1` (stereo not shown): 51%, 28 µM and 6.6 nM.

The values above are taken from patent US20250312310A1, “Beta2-adrenergic receptor antagonists for use in treating diabetes or obesity” (NovelYeast bv, priority 2021, published 2025).
